The subject of this assay is S. cerevisiae tim10 strain, luminescence counterscreen. The experiment in a line: TIM10 strain luminescence inhibitors – S. cerevisiae, uHTS hits, counter-screen for tim23-1 inhibitor project, dose response (AID 504672;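 note: yeast grew roughly 22 hours at 25 °C before the luminescence read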). (A counterscreen serves to expose hits that act by an unwanted route or on another target.)

In general, IC50 refers to the point on the concentration scale where inhibition reaches its midpoint.

Structures are written as SMILES.

For `COc1ccc(C(C[N+](=O)[O-])c2c(C)[nH]n(-c3ccccc3)c2=O)cc1` (stereo unspecified), the IC50 is 14.6 µM.

The values above are taken from PubChem BioAssay AID504672 (Sanford-Burnham Center for Chemical Genomics, 2011).
